The source of these data is PubChem BioAssay AID1906 (The Scripps Research Institute Molecular Screening Center, 2009).

Structures are written as SMILES. This is a selection; strong and weak results do not stand in their true shares. Some tests of the compounds listed are not included; inactive here does not mean inactive elsewhere. The source made the active and inactive calls.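 The calls were made as follows: active = inhibition above the mean of all tested compounds plus 3 SD, set per screening campaign (cut at about 17% in these data); inactive = the rest.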

The test has as its system cathepsin L1 (Fasciola hepatica). Nature of the test: Fasciola hepatica cathepsin L1 inhibitors, primary screen, counter-screen for PFM18AAP inhibitor project, biochemical, QFRET, fluorogenic peptide substrate (AID 1906).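 Also: 0% = plate median of test compound wells and 100% = 1 µM Z-Phe-Ala-diazomethylketone.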 Conditions: recombinant F. hepatica cathepsin L1, Z-Leu-Arg-MCA fluorescence; at 5.96 µM; hits give high values. A general note: The purpose of a counterscreen is to sort out artefacts and off-target activity.
Regarding `O=C(NCC1(N2CCCCC2)CCCCC1)c1cc([N+](=O)[O-])ccc1Cl`, the inhibition is inactive: 5.62%.

On to `CN1[C@@H]2CC[C@H]1CC(OC(=O)C(O)(c1ccccc1)c1ccccc1)C2` (some centres undefined), for which the inhibition was inactive: 1.45%.

For the molecule `CC(C)N1C(=O)CC2(CCN(CCOC(=O)C(O)(c3ccccc3)c3ccccc3)CC2)C1=O`, the inhibition is inactive: 0.04%.

Consider `COc1cc(SC)ccc1C(=O)NCC1(N(C)C)CCCCC1`, for which the inhibition is inactive: 6.77%.

As to `CCN(CC)CC(C)C(C)OC(=O)C(O)(c1ccccc1)c1ccccc1` (centres undefined), the inhibition is inactive: 1.72%.

In the case of `Cc1ccc(C(=O)NCC2(N3CCCCC3)CCCCC2)cc1`, the inhibition is inactive: 12.3%.

In the case of `CN(C)C1CCCC1OC(=O)C(O)(c1ccccc1)c1ccccc1` (centres undefined), the inhibition is inactive: 5.45%.

For `CN(C)c1ccc(C(=O)NCC2(N(C)C)CCCCC2)cc1`, the inhibition was inactive: 0.46%.

`Cc1ccccc1C(=O)NCC1(N2CCCCC2)CCCCC1`: the inhibition was active: 27.2%.

Take `O=C(NCC1(N2CCCCC2)CCCCC1)c1cc(F)c(F)cc1Cl`: the inhibition was inactive: 13.8%.

Regarding `C=CCN1CCN(CCOC(=O)C(O)(c2ccccc2)c2ccccc2)CC1`, the inhibition is inactive: -3%.

Consider `O=C(NCC1(N2CCCCC2)CCCCC1)c1cccc(Br)c1`, for which the inhibition was inactive: -0.46%.

Consider `Cc1cc(C(=O)NCC2(N3CCCCC3)CCCCC2)ccc1[N+](=O)[O-]`, for which the inhibition is inactive: 1.22%.

Turning to `CCN1CCCC(OC(=O)C2(O)c3ccccc3C=Cc3ccccc32)C1` (centres undefined), the inhibition was inactive: 0.15%.

On to `COc1ccc(C(=O)NCC2(N(C)C)CCCCC2)cc1`, for which the inhibition is inactive: 2.38%.

Consider `CN(C)C1(CNC(=O)c2ccc(Br)cc2)CCCCC1`, for which the inhibition is inactive: -3.67%.

With `COc1cc(C(=O)NCC2(N(C)C)CCCCC2)c([N+](=O)[O-])cc1OC`, the inhibition is inactive: 1.68%.

For the molecule `COc1ccc(Cl)cc1C(=O)NCC1(N(C)C)CCCCC1`, the inhibition was inactive: -1.1%.

`COc1cccc(C(=O)NCC2(N3CCCCC3)CCCCC2)c1`: the inhibition was inactive: 4.7%.

As for `O=C(NCC1(N2CCCCC2)CCCCC1)c1cccc(Cl)c1`, the inhibition is inactive: 1.49%.

Take `O=C(OC1CN2CCC1CC2)C(CO)(c1ccccc1)c1ccccc1` (centres undefined): the inhibition is inactive: -0.38%.

In the case of `COc1ccc(Br)c(C(=O)NCC2(N3CCCCC3)CCCCC2)c1`, the inhibition is active: 24.9%.

For `CN(C)c1cccc(C(=O)NCC2(N(C)C)CCCCC2)c1`, the inhibition was inactive: -1.59%.

Turning to `CC(C)Oc1ccc(C(=O)NCC2(N(C)C)CCCCC2)cc1`, the inhibition was inactive: 5.12%.

The inhibition is the relative decrease from the control value, in per cent.
